The entries are a selection whose mix differs from that of the whole data set. Calls of active or inactive are those of the source.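 Rule for the calls: active = inhibition above the mean of all tested compounds plus 3 SD, set per campaign (cut at about 25% in these data); inactive = the rest.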
Target: Tyrosyl-DNA phosphodiesterase 2 (Homo sapiens) (UniProt O95551)
Assay: human TDP2 enzyme inhibitors, primary screen, biochemical, epi absorbance, recombinant enzyme (AID 720702);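 note: 0% = DMSO with enzyme and 100% = buffer with substrate but no TDP2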
Conditions: recombinant TDP2, T5PNP hydrolysis, p-nitrophenol absorbance 415 nm; at 12.8 µM; stronger effect = higher value
How it was run: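 System: recombinant human TDP2 / Amount: 120 nM TDP2 per well / Also added: 5 mM T5PNP chromogenic substrate / Doses: 12.8 µM single point, 1% DMSO / Incubation: 2 h at 37 °C / Detection: p-Nitrophenol epi absorbance / Evaluation: % inhibition relative to enzyme-containing and enzyme-free wells / Repeats: singlicate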

Chains of the proteins cited; added tags and fusions are not shown. Lines headed by an entry give the natural chain unless they say otherwise; changes in a name come on top.
UniProt O95551: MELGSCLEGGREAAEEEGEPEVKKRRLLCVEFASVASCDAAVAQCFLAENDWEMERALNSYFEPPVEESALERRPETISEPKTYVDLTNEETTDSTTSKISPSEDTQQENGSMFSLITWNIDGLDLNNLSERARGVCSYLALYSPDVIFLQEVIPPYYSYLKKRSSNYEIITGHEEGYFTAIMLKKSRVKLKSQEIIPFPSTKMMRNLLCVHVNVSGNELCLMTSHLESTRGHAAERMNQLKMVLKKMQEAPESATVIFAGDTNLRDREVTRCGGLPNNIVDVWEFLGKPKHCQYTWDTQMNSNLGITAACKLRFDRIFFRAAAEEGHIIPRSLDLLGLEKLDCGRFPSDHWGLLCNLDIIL

Structure (SMILES) | inhibition
CCC1=CC2Cc3nc4ccc(Cl)cc4c(N)c3C(C1)C2 (stereo not given) | inactive: -4.81%
CCOP(=O)(NC(=NC(C)c1ccccc1)NC(C)c1ccccc1)OCC (stereo not given) | inactive: 12.3%
O=P1(N(CCCl)CCCl)NCCC(C(F)(F)F)O1 (stereo not given) | inactive: -1.35%
Clc1n[nH]nc1-c1nn[nH][15n]1 | inactive: -8.08%
CC(C)(C)C(=O)NC(Sc1ncccn1)C(Cl)(Cl)Cl (stereo not given) | inactive: 0.2%
COc1ccccc1CNC(=O)COC(=O)C(O)(c1ccccc1)c1ccccc1 | inactive: -4.58%
CC1(CBr)Cn2c(nc3ccccc3c2=O)S1 (stereo not given) | inactive: 0.89%
CC(C)/C=N\N=C(\N)N[N+](=O)[O-] | inactive: 5.4%
CN(C(=O)Cc1ccc(Cl)c(Cl)c1)[C@@H]1CCCC[C@H]1N1CCCC1 | inactive: -1.89%
CN(C(=O)Cc1ccc(Cl)c(Cl)c1)C1CCCC[C@@H]1N1CCCC1 (stereo not given in full) | inactive: -4.94%
Cc1nn(-c2ccccc2)c2c1P(=O)(N1CCOCC1)N(C)C(c1ccccc1)=N2 (stereo not given) | inactive: 5.07%
CC1CCC(C(C)C)C(OP(=O)(Nc2ccccn2)c2ccccc2)C1 (stereo not given) | inactive: -1.36%
Cc1ccc(C(=O)OC2CN3CCC2CC3)cc1 (stereo not given) | inactive: 0.33%
O=C(/C=C/c1ccccc1)OC1CN2CCC1CC2 (stereo not given) | inactive: -1.87%
CCCC1OP(=O)(Nc2ccccc2)OCC1CC (stereo not given) | inactive: 3.94%
CN(C)C1(CNC(=O)c2ccc(S(C)(=O)=O)cc2)CCCCC1 | inactive: -5.43%
O=P1(Nc2ncccn2)COc2ccccc2OC1 | inactive: -9.52%
Cc1ccc(S(=O)(=O)N(CCCN)CCCc2c(C)nc(N)[nH]c2=O)cc1 | inactive: -0.09%
O=[As](O)(c1cccs1)c1cccs1 | inactive: 0%
Cc1ccc(OCC(=O)OC2CN3CCC2CC3)cc1 (stereo not given) | inactive: 6.26%
O=P1(Nc2ccc(Br)cn2)COc2ccccc2OC1 | inactive: -0.32%
NS(=O)(=O)c1cccc(NC(=O)COC(=O)C(O)(c2ccccc2)c2ccccc2)c1 | inactive: -4.7%
Nc1cccc([As](=O)(O)c2ccccc2)c1 | inactive: 8.14%

Structure (SMILES) | inhibition
CCOP1(=S)c2c(C)nn(CCC#N)c2N=C(c2ccccc2F)N1C (stereo not given) | inactive: -0.37%
O=P(Nc1nccs1)(Oc1ccccc1)Oc1ccccc1 | inactive: 9.3%
Nc1ccccc1[As](=O)(O)c1ccccc1 | inactive: 0.69%
O=C(O)COc1ccc([As](=O)(O)O)cc1[N+](=O)[O-] | inactive: -0.78%
NC(=O)Nc1ccc([As](=O)(O)O)cc1 | inactive: 10.2%
O=[N+]([O-])c1ccc2c(c1)nnn2O | inactive: 18.9%
CN(C)C(=O)c1cc([N+](=O)[O-])cc2c1-c1c(cc([N+](=O)[O-])cc1[N+](=O)[O-])C2=O | inactive: -8.12%
CN(C(=O)Cc1ccc(Cl)c(Cl)c1)[C@H]1CC[C@@]2(CCCO2)C[C@@H]1N1CCCC1 | inactive: -0.61%
N#CCCN(C(=O)COC(=O)C(O)(c1ccccc1)c1ccccc1)c1ccc(F)cc1 | inactive: 16.8%
CN(C(=O)Cc1ccccc1)[C@@H]1CC[C@]2(CCCO2)C[C@H]1N1CCCC1 | inactive: 4.32%
CCOP1(=S)c2c(C)nn(CCC#N)c2N=C(c2ccc(F)cc2)N1C (stereo not given) | inactive: -4.32%
O=[As](O)(O)c1cccnc1 | inactive: 8.69%
COc1cc(C(=O)NCC2(N3CCOCC3)CCCCC2)cc(Cl)c1OC(C)C | inactive: -6.24%
CS(=O)(=O)c1ccc(Cl)c(NC(=O)COC(=O)C(O)(c2ccccc2)c2ccccc2)c1 | inactive: -5.62%
O=C(OC1CN2CCC1CC2)c1ccc(Cl)cc1 (stereo not given) | inactive: -12.9%
Cc1cccc(OCC(=O)OC2CN3CCC2CC3)c1 (stereo not given) | inactive: -3.36%
O=[As](O)(c1cccc(O)c1)c1cccc(O)c1 | inactive: 4.91%
CCCOP(=S)(Nc1nc(N)cc(=O)[nH]1)OCCC | inactive: -15%
Nc1cccc2c([As](=O)(O)O)cccc12 | active: 67.5%
Cc1ccc(NCCc2c([N+](=O)[O-])cc([N+](=O)[O-])cc2[N+](=O)[O-])cc1 | inactive: 8.56%
COc1cc(C2NCCC3(OCCO3)C2(C)C)cc(OC)c1OC (stereo not given) | inactive: -4.25%
CCOP(=O)(Nc1cccc2ccccc12)OCC | inactive: 5.08%
